Reference: patent publication US20210205271A1 (The Johns Hopkins University, priority 2018, published 2021)

Settings: male, CD-1, mouse, in vivo, po, 30 mg/kg

B/P (brain to plasma ratio of MBZ): 0.8
SMILES: COC(=O)Nc1nc2cc(C(=O)c3ccccc3)ccc2n1COP(=O)([O-])OCOC(=O)OC(C)C.[Na+] [Compound 12, Methyl (5-benzoyl-1-(((hydroxy(((isopropoxycarbonyl)oxy)methoxy)phosphoryl)oxy)methyl)-1H-benzo[d]imidazol-2-yl)carbamate, sodium salt]
